Data reported in patent US4866038A, “Method of stimulating integumental melanocytes by topical application of analogs of alpha-msh” (University Patents, Inc., priority 1988, dated 1989).

Columns and labels:
[1] = resistance to serum proteolytic enzyme degradation; type: in vitro ADME
Description: In this procedure, samples of the media containing the peptides (10 nM) were removed at time zero and at 24, 48, and 72 hours. The samples were immediately frozen, and assays for biological activity using the in vitro frog skin bioassay.

[2] = system: TA-98 strain of S. typhimurium; test: Ames microbacterial assay; conditions: 10^-2 M, spontaneous revertants subtracted
Description: The Ames microbacterial assay was used for these tests which were performed both with and without a microsomal enzyme/NADPH generating system. Briefly, this test measures the number of reverse mutations which occur in special histidine-dependent strains of Salmonella typhimurium. Positives (mutations) are scored as the number of revertant cells which are able to form colonies in a histidine-deficient growth medium after exposure to a mutagenic substance.
All substances were dissolved in sterile 0.9% sodium chloride (without preservatives) to concentrations of 10^-2, 10^-3 and 10^-4 Molar. The TA-98 strain of S. typhimurium was used and experiments were performed with and without exposure to S-9 rat liver microsomal enzymes and an NADPH generating system. This enzyme cocktail can metabolically activate some compounds to mutagenic species. In addition to the melanotropins, Doxorubicin (Adriamycin™) was also simultaneously tested. […] It was thus included to act as a positive control. […] For the actual evaluation of revertants, the identity of the specific test compound was blinded.

rats = test: toxicology in rats, daily injection for 5 days; type: in vivo, rat; conditions: 0.02 mg daily for 5 consecutive days
Description: Six rats were injected with [Nle^4, D--Phe^7 ]-alpha-MSH (0.2 ml of 10^-4 M solution of the peptide; 0.02 mg daily for 5 consecutive days). […] On the last day of the treatment the animals were sacrificed and serum samples obtained. […] If the melanotropins were to stimulate the adrenal then it might be expected that blood glucose levels would be altered (as in Cushing's disease in humans).

Mice = test: toxicology in mice, injection at the same high concentrations; type: in vivo, mouse; conditions: injected at the same abnormally high concentrations
male CD-2 = test: toxicology in male CD-2 mice, intraperitoneal injection; type: in vivo, mouse; conditions: i.p. 0.25 ml of 20-^3 M
Description: Additionally studies were performed in male CD-2 injected introperitoneally with 0.25 ml of 20-^3 M of [Nle^4, D--Phe^7 ]MSH. Core temperatures were monitored by rectal probes connected to a digital thermal transducer. There were not consistent changes in the core temperatures which averaged 35.2° C. for up to 24 hours post-injection. The activity level was also normal in these animals. Twenty four hours after dosing, the mice were sacrificed by rapid cervical dislocation and blood removed for analysis of hepatic and renal chemistries, and for characterization of hematologic indices. […] Serum levels of electrolytes were normal. The serum cortisol levels were also normal. […] The red blood cell characteristics (size, hemoglobin level) were normal.

[3] = in vitro penetration of human cadaver and excised skin; type: in vitro ADME; conditions: analog in PEG, penetration cell, 38° C., 24 hours, frog skin bioassay
Description: Human cadaver and excised skin from mastectomies, face lifts, etc. has been used to determine the in vitro penetration of alpha-MSH analog [Nle^4 4H,D--PheY7H]-alpha-MSH. Studies have shown that in vitro transdermal delivery in these types of skin accurately predicts the in vitro situation.
(§1) Subcutaneous tissue is removed from these skin samples and they are set up on a specially designed penetration cell [LGA]at 38° C. for 24 hours. AlphaMSH analog in PEG is applied to the epidermal surface. Saline bathes the dermal surface of the sample. The amount of alpha-MSH analog traversing the skin into the saline is quantitated by frog skin bioassay.

[4] = in vitro penetration of mouse skin; type: in vitro ADME; conditions: analog in PEG, penetration cell, 38° C., 24 hours, frog skin bioassay
Description: as §1

[Nle^4, D--Phe^7 ]--alpha-MSH [[Nle^4, D-Phe^7]-alpha-MSH]
enzymatic inactivation [1]: resistant to enzymatic inactivation
REVERTANTS PER PLATE WITH S-9 [2]: 0
REVERTANTS PER PLATE WITHOUT S-9 [2]: 0
blood glucose levels, control versus experimental animals (rats; serum on last day): did not differ
general condition after treatment (rats; 0.2 ml of 10^-4 M): apparently no worse for the treatment
general condition and behavior (Mice): apparently not affected
activity level (male CD-2): normal
Serum levels of electrolytes (male CD-2; 24 hours after dosing): normal
hematologic toxicities, whole blood (male CD-2; 24 hours after dosing): no hematologic toxicities
levels of white blood cells, red blood cells and platelets (male CD-2; 24 hours after dosing): normal levels
liver or kidney function (male CD-2; 24 hours after dosing): no alterations
red blood cell characteristics (size, hemoglobin level) (male CD-2; 24 hours after dosing): normal
serum cortisol levels (male CD-2; 24 hours after dosing): normal
weight change (male CD-2; short-term study): not significant weight change
core temperatures, average (male CD-2; up to 24 hours post-injection, no consistent changes): 35.2 °C
penetration of full thickness intact abdominal thoracic human skin (epidermis+ dermis) [3]: not penetrated entirely
penetration of human scalp full thickness skin [3]: penetrated
penetration of split skin samples of human epidermis (0.5 mm and 0.7 mm) [3]: penetrated
penetration of mouse skin [4]: well penetrated
